Laboratory results reported in patent US11419866B2, “Pharmaceutical composition for sustained release delivery of buprenorphine” (Foresee Pharmaceuticals Co., Ltd., priority 2018, dated 2022).

Assay: Benzaldehyde formation from benzyl alcohol with antioxidants (summary statements)
Conditions: in the presence of MTG

| Compound | benzaldehyde production with added chemical stabilizer |
| --- | --- |
| O=C(O)CCP(CCC(=O)O)CCC(=O)O | benzyl aldehyde formation still occurs |
| O=C1O[C@H]([C@@H](O)CO)C(O)=C1O | significantly reduced |
